Format in all cases: cell-based
For test [1], the system named is FGFR1 in hepatic cancer cell line huH-7. The test can be described thus: FGFR1 expression at protein level in hepatic cancer cell line by western blotting. Particulars: 1,000 IU/ml, 48 hours, huH-7, western blotting. The protocol:
1,000 IU/ml of IFN-alpha or IFN-beta was administered to a hepatic cancer cell line huH-7. 48 hours after administration, a change of FGFR1 was examined by western blotting. From this profile, the expression level of FGFR1 at the protein level was increased by administering IFN-alpha or IFN-beta.

Test [2] has the same test system. The test can be described thus: FGFR1 expression in hepatic cancer cell line by FACS. The following applies: 1,000 IU/ml, 48 hours, huH-7, FACS. The protocol: 1,000 IU/ml of IFN-alpha or IFN-beta was administered to a hepatic cancer cell line huH-7. 48 hours after administration, a change of FGFR1 was examined by FACS.
The next test deals with huH-7 cells. Kind of test: Growth inhibition of hepatic cancer cell line (cell number and survival rate). The following applies: huH-7, cultured 0 to 6 days, agent added alone. The protocol:
To examine the influence of administration of IFN-beta and the anti-FGFR1 antibody on a hepatic cancer cell line, the proliferation and survival rate of a hepatic cancer cell line were examined in the presence of IFN-beta (Feron, manufactured by Toray) and the anti-FGFR1 antibody. First, 1.0×10^4. huH-7 cells were seeded to each well of a 24-well plate, then the anti-FGFR1 antibody prepared in Example 2 or an antibody-free culture supernatant as a negative control was added. Cells to which nothing was added were used as control. Then the cells were cultured for 0 to 6 days. Thereafter, the cells were detached with trypsin, and the number and survival rate of cells were measured. […] However, by adding the anti-FGFR1 antibody in addition to IFN-beta, the survival rate was about 40% lowered compared to the case anti-FGFR1 antibody was not administered.

B1: IFN-beta: IFN-beta (Feron, manufactured by Toray) (protein, UniProt P01574 22-187, looked up)
Interferon beta: MSYNLLGFLQRSSNFQCQKLLWQLNGRLEYCLKDRMNFDIPEEIKQLQQFQKEDAALTIYEMLQNIFAIFRQDSSSTGWNETIVENLLANVYHQINHLKTVLEEKLEKEDFTRGKLMSSLHLKRYYGRILHYLKAKEYSHCAWTIVRVEILRNFYFINRLTGYLRN
With B1, in test [1], the “expression level of FGFR1 at the protein level” value was “increased”. Also, the “expression level of FGFR1” value in test [2] is given as “increased”. Moreover, in the test with huH-7 cells, the cell growth entry is reported as “inhibition of the cell growth” and the survival rate result is listed as “decrease in the survival rate”.

The values are drawn from patent US8481497B2, “Therapeutic agent for cancer, and method for treatment of cancer” (Sapporo Medical University, priority 2007, dated 2013).
